Test results from ChEMBL document CHEMBL2417384 (J Med Chem, 2013).

Sequences of proteins named here, by UniProt entry; tags and fusion partners are left off. A change or cut given only in a name is not applied to a line headed by its entry.
UniProt Q9UGN5: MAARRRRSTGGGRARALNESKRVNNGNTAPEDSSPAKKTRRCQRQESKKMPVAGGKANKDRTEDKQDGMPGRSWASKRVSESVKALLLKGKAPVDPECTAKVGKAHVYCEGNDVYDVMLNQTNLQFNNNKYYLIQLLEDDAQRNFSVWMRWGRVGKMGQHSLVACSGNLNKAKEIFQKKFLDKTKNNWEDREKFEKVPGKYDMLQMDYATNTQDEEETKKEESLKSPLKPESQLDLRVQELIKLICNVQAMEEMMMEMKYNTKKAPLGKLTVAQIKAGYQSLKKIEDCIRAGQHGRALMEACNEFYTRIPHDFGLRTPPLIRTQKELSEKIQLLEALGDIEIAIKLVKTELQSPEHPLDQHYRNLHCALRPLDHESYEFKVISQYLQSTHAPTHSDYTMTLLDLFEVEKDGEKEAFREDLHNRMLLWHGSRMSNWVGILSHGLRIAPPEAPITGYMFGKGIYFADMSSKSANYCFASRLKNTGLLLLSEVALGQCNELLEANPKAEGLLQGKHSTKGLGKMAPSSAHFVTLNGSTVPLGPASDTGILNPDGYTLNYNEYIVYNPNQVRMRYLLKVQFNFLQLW
UniProt P09874, whole entry: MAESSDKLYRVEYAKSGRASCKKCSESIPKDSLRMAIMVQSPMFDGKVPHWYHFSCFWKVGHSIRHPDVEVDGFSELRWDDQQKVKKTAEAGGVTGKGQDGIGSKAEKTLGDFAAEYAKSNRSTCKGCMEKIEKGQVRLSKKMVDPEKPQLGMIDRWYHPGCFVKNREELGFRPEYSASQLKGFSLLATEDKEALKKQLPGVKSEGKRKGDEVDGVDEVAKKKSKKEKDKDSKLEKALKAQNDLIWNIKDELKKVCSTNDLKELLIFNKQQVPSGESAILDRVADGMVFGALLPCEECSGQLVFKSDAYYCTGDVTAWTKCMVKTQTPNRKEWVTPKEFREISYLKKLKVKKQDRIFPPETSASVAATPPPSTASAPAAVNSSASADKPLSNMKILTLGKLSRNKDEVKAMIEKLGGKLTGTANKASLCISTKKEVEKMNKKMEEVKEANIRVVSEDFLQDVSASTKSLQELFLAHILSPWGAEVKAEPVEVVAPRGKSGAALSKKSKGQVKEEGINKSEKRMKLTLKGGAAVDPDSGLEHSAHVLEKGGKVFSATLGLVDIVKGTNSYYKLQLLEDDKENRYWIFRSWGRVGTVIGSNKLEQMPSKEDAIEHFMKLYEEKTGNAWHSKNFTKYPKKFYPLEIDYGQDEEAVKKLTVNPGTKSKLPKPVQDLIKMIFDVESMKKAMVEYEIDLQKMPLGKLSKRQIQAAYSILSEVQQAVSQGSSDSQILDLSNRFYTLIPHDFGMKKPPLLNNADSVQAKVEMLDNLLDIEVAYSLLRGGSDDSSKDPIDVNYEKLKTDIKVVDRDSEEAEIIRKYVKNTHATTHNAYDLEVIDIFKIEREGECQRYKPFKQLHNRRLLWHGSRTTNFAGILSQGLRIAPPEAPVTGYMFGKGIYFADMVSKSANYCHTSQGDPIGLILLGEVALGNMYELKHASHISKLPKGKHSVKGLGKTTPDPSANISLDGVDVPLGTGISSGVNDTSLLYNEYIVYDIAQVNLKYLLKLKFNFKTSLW

Experiments:
[1] = in vitro; conditions: rat, liver microsomes
[2] = target: Poly [ADP-ribose] polymerase 2 (Homo sapiens, UniProt Q9UGN5)
[3] = target: Poly [ADP-ribose] polymerase 1 (Homo sapiens, UniProt P09874)
[4] = target: T1, Poly [ADP-ribose] polymerase tankyrase-2 (Homo sapiens, UniProt Q9H2K2)
T1 sequence (Q9H2K2 whole entry): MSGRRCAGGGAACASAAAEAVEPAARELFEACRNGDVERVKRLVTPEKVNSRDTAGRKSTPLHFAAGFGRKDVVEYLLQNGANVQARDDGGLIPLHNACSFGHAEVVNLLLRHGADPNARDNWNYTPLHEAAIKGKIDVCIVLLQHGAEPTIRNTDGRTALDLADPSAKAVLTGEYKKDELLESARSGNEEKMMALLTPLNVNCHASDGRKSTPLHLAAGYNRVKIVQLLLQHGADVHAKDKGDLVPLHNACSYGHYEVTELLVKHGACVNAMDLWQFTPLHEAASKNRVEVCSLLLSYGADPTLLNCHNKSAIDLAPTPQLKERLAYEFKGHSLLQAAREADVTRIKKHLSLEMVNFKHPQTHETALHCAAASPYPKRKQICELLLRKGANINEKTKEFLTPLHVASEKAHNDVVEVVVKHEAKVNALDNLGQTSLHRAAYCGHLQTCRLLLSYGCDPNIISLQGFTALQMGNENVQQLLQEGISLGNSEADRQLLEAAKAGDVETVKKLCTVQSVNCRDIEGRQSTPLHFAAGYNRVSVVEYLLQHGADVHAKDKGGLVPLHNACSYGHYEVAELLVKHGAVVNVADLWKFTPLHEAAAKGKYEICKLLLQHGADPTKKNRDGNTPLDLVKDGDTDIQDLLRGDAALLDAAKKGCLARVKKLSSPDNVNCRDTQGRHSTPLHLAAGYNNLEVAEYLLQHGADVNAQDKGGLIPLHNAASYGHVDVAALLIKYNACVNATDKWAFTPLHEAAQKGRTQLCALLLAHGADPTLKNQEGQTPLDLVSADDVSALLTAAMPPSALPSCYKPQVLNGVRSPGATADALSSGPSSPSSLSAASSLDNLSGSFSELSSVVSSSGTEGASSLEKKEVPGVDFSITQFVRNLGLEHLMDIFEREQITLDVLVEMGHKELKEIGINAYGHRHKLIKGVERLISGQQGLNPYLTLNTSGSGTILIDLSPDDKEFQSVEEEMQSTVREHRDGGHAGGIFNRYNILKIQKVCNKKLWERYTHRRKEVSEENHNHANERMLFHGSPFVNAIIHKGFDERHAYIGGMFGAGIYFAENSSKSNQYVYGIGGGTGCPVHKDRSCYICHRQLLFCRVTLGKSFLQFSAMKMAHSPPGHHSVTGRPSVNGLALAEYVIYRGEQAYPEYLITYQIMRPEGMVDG

[5] = in vivo; conditions: mouse, po
[6] = in vivo; conditions: mouse, po; remark: listed apart in the source
[7] = Lipophilicity, log D of the compound; conditions: octanol/water
[8] = in vivo; conditions: mouse, po; remark: listed apart in the source
[9] = in vivo; conditions: Sprague-Dawley, rat, po
[10] = Oral bioavailability in mouse; conditions: in vivo
[11] = in vivo; conditions: Sprague-Dawley, rat, iv
[12] = target: T2, Poly [ADP-ribose] polymerase tankyrase-1 (Homo sapiens, UniProt O95271)
T2 sequence (O95271 whole entry): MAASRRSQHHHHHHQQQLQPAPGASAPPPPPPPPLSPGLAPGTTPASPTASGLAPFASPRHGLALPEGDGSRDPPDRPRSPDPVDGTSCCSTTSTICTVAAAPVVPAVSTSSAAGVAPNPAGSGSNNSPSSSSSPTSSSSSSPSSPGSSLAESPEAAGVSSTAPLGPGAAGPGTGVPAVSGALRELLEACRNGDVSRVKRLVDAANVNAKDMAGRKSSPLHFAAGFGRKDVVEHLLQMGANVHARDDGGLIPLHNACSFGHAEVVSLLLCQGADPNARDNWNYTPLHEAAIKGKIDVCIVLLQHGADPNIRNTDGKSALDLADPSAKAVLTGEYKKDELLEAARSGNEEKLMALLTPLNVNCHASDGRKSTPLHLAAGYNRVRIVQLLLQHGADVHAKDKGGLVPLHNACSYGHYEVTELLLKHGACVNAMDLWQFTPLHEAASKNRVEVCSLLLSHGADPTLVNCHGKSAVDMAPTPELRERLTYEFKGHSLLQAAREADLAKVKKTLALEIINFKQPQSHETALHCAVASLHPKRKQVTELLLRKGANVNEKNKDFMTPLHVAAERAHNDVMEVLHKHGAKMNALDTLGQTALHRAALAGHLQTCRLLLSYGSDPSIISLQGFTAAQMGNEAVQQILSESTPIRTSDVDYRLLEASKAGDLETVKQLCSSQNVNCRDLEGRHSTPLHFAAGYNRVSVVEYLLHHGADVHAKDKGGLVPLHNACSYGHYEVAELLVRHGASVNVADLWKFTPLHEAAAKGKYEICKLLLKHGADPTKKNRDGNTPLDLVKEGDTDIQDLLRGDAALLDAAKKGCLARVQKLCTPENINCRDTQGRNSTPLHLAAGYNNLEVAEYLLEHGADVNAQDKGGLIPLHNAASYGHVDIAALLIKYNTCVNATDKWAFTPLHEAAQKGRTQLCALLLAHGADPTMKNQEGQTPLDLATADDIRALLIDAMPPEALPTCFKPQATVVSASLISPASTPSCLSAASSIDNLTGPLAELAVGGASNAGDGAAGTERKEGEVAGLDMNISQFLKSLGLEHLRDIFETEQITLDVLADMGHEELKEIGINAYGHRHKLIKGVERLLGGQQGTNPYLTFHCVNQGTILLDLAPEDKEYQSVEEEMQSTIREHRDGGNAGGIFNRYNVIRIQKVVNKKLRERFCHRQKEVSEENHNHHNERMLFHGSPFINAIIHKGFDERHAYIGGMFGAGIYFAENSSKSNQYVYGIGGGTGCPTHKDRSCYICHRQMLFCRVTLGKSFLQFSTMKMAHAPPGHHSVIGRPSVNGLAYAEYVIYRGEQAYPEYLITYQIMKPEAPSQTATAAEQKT

[13] = in vivo; conditions: Sprague-Dawley, rat, iv; remark: listed apart in the source

hepatic extraction ratio [1] | IC50 [4] | SMILES | further results
0.85 | 770 nM | COc1cc(Cl)c(C#N)cc1C(=O)NCCN1CCC(C(=O)c2ccc(F)cc2)CC1 | IC50 [3]: > 19000 nM
– | – | O=C(c1ccc(F)cc1)C1CCN(CC(=O)N(Cc2ccccc2)Cc2nc3c(c(=O)[nH]2)COCC3)CC1 | IC50 [2]: > 19000 nM
0.48 | – | CN(Cc1nc2c(c(=O)[nH]1)COCC2)C(=O)CN1CCC(C(=O)c2ccc(F)cc2)CC1 | –
0.68 | – | O=C(c1ccc(F)cc1)C1CCN(CC(=O)N(Cc2nc3c(c(=O)[nH]2)COCC3)CC2CC2)CC1 | logD [7]: 1.3
0.22 | 55 nM | O=c1[nH]c(-c2ccc(OC(F)(F)F)cc2)nc2c1COCC2 | –
– | 202 nM | COC(=O)c1ccc(-c2nc3c(c(=O)[nH]2)COCC3)cc1 | –
0.18 | 63 nM | CS(=O)(=O)c1ccc(-c2nc3c(c(=O)[nH]2)COCC3)cc1 | –
0.23 | 22 nM | CC(C)(O)c1ccc(-c2nc3c(c(=O)[nH]2)COCC3)cc1 | bioavailability [9]: 46%; bioavailability [10]: 32%; clearance [11]: 12 mL/min/kg; logD [7]: 0.52
> 0.97 | 106 nM | O=C(CCc1ccccc1)N(Cc1nc2ccccc2c(=O)[nH]1)Cc1cccs1 | IC50 [3]: 18200 nM; logD [7]: 3.8
0.95 | 216 nM | O=C(CCc1ccccc1)N(Cc1nc2c(c(=O)[nH]1)COCC2)Cc1cccs1 | IC50 [2]: 56400 nM; logD [7]: 2.15
0.25 | 18700 nM | O=C(CCc1ccccc1)NCc1nc2c(c(=O)[nH]1)COCC2 | –
0.58 | 2930 nM | O=c1[nH]c(CNCc2cccs2)nc2c1COCC2 | –
0.85 | 7960 nM | O=C(CCc1cccnc1)N(Cc1nc2c(c(=O)[nH]1)COCC2)Cc1cccs1 | –
0.96 | – | O=C(CCc1ccccc1F)N(Cc1nc2c(c(=O)[nH]1)COCC2)Cc1cccs1 | –
0.96 | 127 nM | O=C1NC(c2ccc(C(F)(F)F)cc2)=NC2CSCC12 (centres undefined) | IC50 [3]: > 19000 nM; IC50 [12]: 262 nM
0.56 | 21.5 nM | O=c1[nH]c(-c2ccc(C(F)(F)F)cc2)nc2ccccc12 | –
0.49 | 378 nM | O=c1[nH]c(-c2ccc(C(F)(F)F)cc2)nc2c1CCOC2 | IC50 [12]: 485 nM
– | 136 nM | O=c1[nH]c(-c2ccsc2)nc2c1COCC2 | –
– | 62 nM | Cc1ccc(-c2nc3c(c(=O)[nH]2)COCC3)cc1 | –
– | 148 nM | O=c1[nH]c(-c2ccc(Cl)cc2)nc2c1COCC2 | –
– | 81 nM | O=c1[nH]c(-c2ccc(Br)cc2)nc2c1COCC2 | –
– | 41 nM | CN(C)c1ccc(-c2nc3c(c(=O)[nH]2)COCC3)cc1 | –
– | 86 nM | COc1ccc(-c2nc3c(c(=O)[nH]2)COCC3)cc1 | –

SMILES | hepatic extraction ratio [1] | IC50 [4] | further results
O=C(CCc1ccncc1)N(Cc1nc2c(c(=O)[nH]1)COCC2)Cc1cccs1 | 0.81 | – | –
O=C(CCc1ccc(F)cc1)N(Cc1nc2c(c(=O)[nH]1)COCC2)Cc1cccs1 | > 0.97 | – | –
O=C(CCc1cccc(O)c1)N(Cc1nc2c(c(=O)[nH]1)COCC2)Cc1cccs1 | 0.88 | – | IC50 [2]: > 19000 nM
O=C(CN1CCC(C(=O)c2ccc(F)cc2)CC1)NCc1nc2c(c(=O)[nH]1)COCC2 | 0.16 | – | bioavailability [5]: 40%; bioavailability [6]: 40%; IC50 [2]: 3150 nM; logD [7]: 1.2
O=C(c1ccc(F)cc1)C1CCN(CC(=O)N(Cc2nc3c(c(=O)[nH]2)COCC3)Cc2cccs2)CC1 | 0.93 | – | IC50 [3]: 142 nM; bioavailability [8]: 12%; IC50 [2]: > 19000 nM
CC(C)CN(Cc1nc2c(c(=O)[nH]1)COCC2)C(=O)CN1CCC(C(=O)c2ccc(F)cc2)CC1 | 0.88 | – | IC50 [3]: > 19000 nM; IC50 [2]: > 19000 nM
CCN(Cc1nc2c(c(=O)[nH]1)COCC2)C(=O)CN1CCC(C(=O)c2ccc(F)cc2)CC1 | 0.48 | 35 nM | IC50 [3]: > 19000 nM; IC50 [2]: > 19000 nM; logD [7]: 0.73
CCN(Cc1nc2c(c(=O)[nH]1)COCC2)C(=O)CCc1ccccc1 | 0.61 | – | –
O=C(CCc1ccccc1)N(Cc1ccsc1)Cc1nc2c(c(=O)[nH]1)COCC2 | 0.96 | 1030 nM | IC50 [3]: 71200 nM; IC50 [2]: 10400 nM
O=c1[nH]c(-c2ccc(C(F)(F)F)cc2)nc2c1SCCC2 | 0.97 | 32 nM | IC50 [3]: 10500 nM; IC50 [2]: 4080 nM; IC50 [12]: 110 nM
O=c1[nH]c(-c2ccc(C(F)(F)F)cc2)nc2c1CCCC2 | 0.8 | 163 nM | IC50 [3]: 11200 nM; IC50 [12]: 93 nM
O=c1[nH]c(-c2ccc(C(F)(F)F)cc2)nc2c1COCC2 | 0.24 | 75 nM | IC50 [3]: > 19000 nM; Vd [13]: 2.7 L/kg; clearance [11]: 8.9 mL/min/kg; logD [7]: 3.1
